Values quoted from earlier work in PMC8611036, “An integrated method for optimized identification of effective natural inhibitors against SARS-CoV-2 3CLpro” (Scientific Reports, 2021).

Details: ref TCMSP database; cited from earlier work

cyanidol [MOL000002]
Caco-2: 0.17
